The target in test [1] is T1, C-C chemokine receptor type 2 (Homo sapiens, UniProt P41597). Kind of test: Antagonist activity at human CCR2. Type of test: functional.
Test [2] addresses T1, C-C chemokine receptor type 2. Briefly: Antagonist activity at CCR2 by calcium mobilization assay. Type of test: functional. On the technique in general: Calcium flux is commonly read through the fluorescence of an indicator in the cells.

By UniProt entry, the sequences of proteins in these tests, tags left out. Where a name states a change or a piece, a line headed by the entry shows the natural chain unless it says otherwise.
UniProt P41597: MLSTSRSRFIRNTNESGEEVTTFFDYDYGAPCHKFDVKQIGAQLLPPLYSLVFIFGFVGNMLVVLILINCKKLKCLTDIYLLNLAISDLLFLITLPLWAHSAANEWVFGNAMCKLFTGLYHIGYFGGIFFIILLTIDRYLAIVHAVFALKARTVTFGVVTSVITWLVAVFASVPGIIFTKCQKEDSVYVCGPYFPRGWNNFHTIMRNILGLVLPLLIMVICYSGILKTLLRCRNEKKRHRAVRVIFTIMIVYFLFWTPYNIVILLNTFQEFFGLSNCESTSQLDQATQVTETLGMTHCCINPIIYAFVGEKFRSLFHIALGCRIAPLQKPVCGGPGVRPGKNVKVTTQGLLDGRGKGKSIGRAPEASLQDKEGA

Consider `NC(=O)C(NC1CCC(c2c[nH]c3ccccc23)CC1)C1CCN(C(=O)/C=C/c2cc(F)c(F)c(F)c2)CC1` (stereo not drawn), for which it took 0.016 µM to reach half-maximal inhibition in test [1] (IC50).
For the compound `NC(=O)C(NC1CCC(c2c[nH]c3ccccc23)CC1)C1CCN(C(=O)/C=C\c2cc(F)cc(F)c2)CC1` (cis isomer), the IC50 (usually the concentration needed to halve the response being measured) in test [1] turned out to be 0.74 µM.
With `NC(=O)C(NC1CCC(c2c[nH]c3ccccc23)CC1)C1CCN(C(=O)/C=C/c2cc(F)cc(F)c2)CC1` (racemic), the concentration for half-maximal inhibition (IC50) in test [2] turned out to be 0.006 µM.

For the origin of these results see ChEMBL document CHEMBL1921678, “The discovery of novel cyclohexylamide CCR2 antagonists” (Bioorg Med Chem Lett, 2011).
